We go through 2 compounds from patent publication US9346810B2, “Pyrrolopyrimidine compounds and uses thereof” (HUTCHISON MEDIPHARMA LIMITED, priority 2010, dated 2016).

Sequences of proteins named here, by UniProt entry; tags and fusion partners are left off. Residues count along the entry.
UniProt P23458, 875-1153: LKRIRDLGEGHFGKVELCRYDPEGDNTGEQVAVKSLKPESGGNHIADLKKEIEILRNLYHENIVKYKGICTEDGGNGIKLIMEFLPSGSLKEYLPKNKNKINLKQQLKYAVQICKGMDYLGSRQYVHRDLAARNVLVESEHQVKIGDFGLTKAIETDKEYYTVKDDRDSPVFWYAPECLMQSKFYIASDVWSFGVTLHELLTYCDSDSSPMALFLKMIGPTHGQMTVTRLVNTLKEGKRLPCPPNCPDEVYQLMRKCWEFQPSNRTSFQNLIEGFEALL

This assay addresses Recombinant human JAK1 catalytic domain (Homo sapiens (Human), UniProt P23458). Put plainly: JAK1 kinase assay (Z'-LYTE, Tyr 6 Peptide). To be noted: read-out: JAK1 (enzyme, IC50). The class given is biochemical. The protocol: JAK1/2/3 kinase assay are performed in vitro using Kit-Tyr 6 Peptide (Invitrogen, Cat. No. PV4122). TYK2 kinase assay are performed in vitro using Z′-LYTE™ Kinase Assay Kit-Tyr 3 Peptide (Invitrogen, Cat. No. PV3192). […] All compounds are initially tested at 8 different concentrations (1 μM down to 0.0003 μM) using a 1:3 serial dilution scheme.

As for `CNS(=O)(=O)N(C)[C@@H]1CCN(c2ncnc3[nH]ccc23)C1` [Compound 47], the concentration for half-maximal inhibition (IC50) (as a rule, the concentration that inhibits the measured activity by half) was found to be 119 nM.

Regarding `CN(c1ccc(C(=O)N[C@@H]2c3ccccc3C[C@H]2O)cc1F)[C@@H]1CCN(c2ncnc3[nH]ccc23)C1` [Compound 206], the half-inhibitory concentration (IC50) came to 2 nM.
